Laboratory results as given in patent US20260151375A1, “CDK2 INHIBITORS AND METHODS OF USING THE SAME” (Cedilla Therapeutics, Inc., priority 2022, published 2026).

Assays:
[1] = biological target: T1, CDK2/Cyclin E1 (Homo sapiens, UniProt P24941); experiment: ADPGLO (CDK2/E1-37 C), ADP-Glo Luminescent Kinase Assay; details: read-out: ADPGLO (CDK2/E1-37C): IC50; 0.18 nM CDK2/Cyclin E1, 100 μM ATP, Histone H1, 37° C.
Protocol: Inhibition of CDK2/Cyclin E1 activity by the presence of small molecules was evaluated using ADP-Glo Luminescent Kinase Assay (Promega). Activated CDK2/Cyclin E1 was incubated with its substrate Histone H1 (SignalChem H10-54N) in the kinase reaction buffer (100 μM ATP, 50 mM HEPES pH 7.5, 10 mM MgCl2, 1 mM EDTA, 2 mM DTT, 0.01% Brij35, 0.5 mg/mL BSA). Luminescence was recorded with an Envision plate reader (PerkinElmer).
Dose titrations of inhibitors in 100% DMSO were combined with 0.36 nM CDK2/Cyclin E1 in reaction buffer. The mixtures were incubated for 60 minutes at 37° C. before the addition of ATP and Histone H1 substrate to initiate the kinase reaction. The final conditions were 0.18 nM CDK2/Cyclin E1, 100 μM ATP, and 1.5 μM Histone H1. The reactions were incubated at 37° C. for 90 minutes before being stopped with the addition of ADP-Glo reagent. This mixture was incubated at room temperature for 60 minutes before Kinase Detection Solution is added to generate luminescence. The stopped reactions were analyzed on an Envision plate reader. The conversion ratios were normalized to yield % activity, plotted against compound concentration, and fit to a four-parameter equation to determine the IC50 for each compound.

[2] = test system: Kuramochi cells; experiment: IncuCyte Kuramochi Assay (cell proliferation); details: read-out: IncuCyte - Kuramochi RB-WT: IC50; Kuramochi cells labeled with mApple-H2B, 72 hours, cell count
Protocol: IncuCyte® assay was used to measure the effect of disclosed compounds on cell proliferation. Fluorescent microscopy images of cells were taken immediately after compound treatment and 72 hours later. Image analysis software was used to obtain cell counts as a function of compound concentration. Kuramochi cells labeled with mApple-H2B were seeded on 384-well assay-ready plates. Plates were placed in an IncuCyte® (Sartorius) and scanned at 0 and 72 hours. IncuCyte® software was used to count the number of fluorescent nuclei in each well. The fold change in cell count from 0 to 72 hours in wells treated with increasing compounds concentrations (10 pts, ½ log dilution, 20 μM top concentration) was normalized to DMSO control wells. The normalized cell counts were fit with dose response curves and a […] was calculated.

[3] = biological target: T1, CDK2/Cyclin E1; experiment: Caliper Assay (LabChip EZ Reader mobility shift assay), inhibition of CDK2/Cyclin E1 activity; details: read-out: Caliper Assay (CDK2/CCNE1): IC50; 2.5 nM CDK2/Cyclin E1(14-475), 100 μM ATP, 30 min preincubation
Protocol: Inhibition of CDK2/Cyclin E1 activity in the presence of compounds of the present disclosure was evaluated using a Caliper LabChip® EZ Reader mobility shift assay. In the assay, activated CDK2/Cyclin E1 catalyzes the phosphorylation of a fluorescently tagged peptide 5-FAM-QSPKKG-CONH2 (PerkinElmer, FL Peptide 18) which induces a difference in capillary electrophoresis mobility. The peptide substrate and product were measured, and the conversion ratio was used to determine the inhibition (as % activity and IC50 values) of CDK2/Cyclin E1. Reactions contained 50 mM HEPES pH 7.5, 10 mM MgCl2, 1 mM EDTA, 2 mM DTT, 0.01% Brij35, 0.5 mg/mL BSA, 0.1% DMSO, 2.5 nM CDK2/Cyclin E1(14-475), 100 μM ATP, and 1.5 μM fluorescent peptide substrate.
Dose titrations of inhibitors in 100% DMSO were combined with 3.25 nM CDK2/Cyclin E1(14-475) and 130 μM of ATP in reaction buffer. The mixtures were incubated for 30 minutes before the addition of fluorescent peptide substrate to initiate the kinase reaction. The final conditions were 2.5 nM CDK2/Cyclin E1(14-475), 100 μM ATP, and 1.5 μM fluorescent peptide. The reactions were stopped after 100 minutes with the addition of EDTA (6 mM final EDTA concentration). The stopped reactions were analyzed on a Caliper LabChip© EZ Reader II. The conversion ratios were normalized to yield % activity, plotted against compound concentration, and fit to a four-parameter equation to determine the IC50 for each compound.

Row | IC50 [3] [µM] | SMILES | IC50 [1] [µM] | IC50 [2] [µM]
1 | – | Cc1ncc(C(=O)N2CC(c3noc(C(C)n4ccc(C5CCOCC5)n4)n3)C3(C2)CN(C(=O)C2(C(F)(F)F)CC2)C3)nc1O (centres unmarked) | > 10 | > 10
2 | – | O=C(c1cnc(O)cn1)N1CC(c2nnc(C(C(=O)N3CCC(c4nccs4)CC3)c3ccc(C4CCCCC4)cc3)o2)C2(C1)CN(C(=O)C1(C(F)(F)F)CC1)C2 (centres unmarked) | < 0.5 | 5 to 10
3 | 1 to 10 | Cc1cc(C(=O)O)n(C(C)c2nc(C3CN(C(=O)c4cncs4)CC34CN(C(=O)[C@H]3CC3(C)C)C4)no2)n1 (some centres unmarked) | – | > 10
4 | 0.1 to 1 | CC1(C)C[C@@H]1C(=O)N1CC2(CN(C(=O)c3cncs3)CC2c2ncc(Cc3ccc(Cl)c(C(F)(F)F)c3)o2)C1 (some centres unmarked) | – | > 10

Row | SMILES | IC50 [3] [µM] | IC50 [1] [µM] | IC50 [2] [µM]
5 | CC1(C)C[C@@H]1C(=O)N1CC2(CN(C(=O)c3cnn(Cc4ccc(C(=O)O)cc4)c3)CC2c2noc(Cn3ccc(C4CCCC4)n3)n2)C1 (some centres unmarked) | 0.1 to 1 | > 10 | > 10
